Experiment: Solubility of testosterone in molten CIA systems
Settings: Table 25: PEG 8000 33.3% / vitamin E TPGS 33.3% / lauroyl polyoxyl-32 glycerides 33.3%

Compound: C[C@]12CC[C@H]3[C@@H](CCC4=CC(=O)CC[C@@]43C)[C@@H]1CC[C@@H]2O [Testosterone]
- Solubility of Testosterone in CIA, Theoretical: 114.1 mg/gm
